From PMC6751662, “Pharmacological and functional similarities of the human neuropeptide Y system in C. elegans challenges phylogenetic views on the FLP/NPR system” (Cell Communication and Signaling : CCS, 2019)

By UniProt entry, the sequences of proteins in these tests, tags left out. Where a name states a change or a piece, a line headed by the entry shows the natural chain unless it says otherwise. Residues count along the entry.
UniProt Q9Y5X5, 103-522: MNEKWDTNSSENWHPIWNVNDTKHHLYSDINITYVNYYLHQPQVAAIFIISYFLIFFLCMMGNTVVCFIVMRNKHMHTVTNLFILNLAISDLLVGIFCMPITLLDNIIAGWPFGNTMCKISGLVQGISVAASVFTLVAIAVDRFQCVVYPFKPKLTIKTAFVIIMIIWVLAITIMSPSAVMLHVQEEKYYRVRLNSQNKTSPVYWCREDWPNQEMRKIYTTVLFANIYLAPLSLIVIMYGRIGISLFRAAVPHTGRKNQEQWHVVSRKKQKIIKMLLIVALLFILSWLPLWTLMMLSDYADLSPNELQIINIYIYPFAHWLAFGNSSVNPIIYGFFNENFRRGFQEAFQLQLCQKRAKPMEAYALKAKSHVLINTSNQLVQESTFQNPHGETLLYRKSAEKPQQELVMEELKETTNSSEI
UniProt P50391: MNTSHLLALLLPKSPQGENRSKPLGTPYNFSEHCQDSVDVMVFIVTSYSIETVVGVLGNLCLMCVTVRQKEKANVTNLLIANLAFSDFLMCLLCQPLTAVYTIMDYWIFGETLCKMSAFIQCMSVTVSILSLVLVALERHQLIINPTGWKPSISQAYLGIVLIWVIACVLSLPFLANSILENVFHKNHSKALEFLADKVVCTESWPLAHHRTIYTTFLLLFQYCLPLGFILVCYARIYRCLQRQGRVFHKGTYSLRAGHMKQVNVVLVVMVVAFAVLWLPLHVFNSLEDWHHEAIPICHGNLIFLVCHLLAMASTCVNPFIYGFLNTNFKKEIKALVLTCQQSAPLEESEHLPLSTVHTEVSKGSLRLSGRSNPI

Experiments:
[1] = target: T1, NPR-11 (Caenorhabditis elegans, UniProt Q18179); assay: cAMP reporter gene assay, Gi/o (inhibition of forskolin-induced cAMP), NPR-11; type: cell-based, C. elegans; settings: 1 µM forskolin set to 1.00, transiently transfected HEK293 cells, mean of at least three independent experiments
T1 construct: expressed in transfected cells; host or cells: HEK293, transient
T1 sequence (Q18179 1-402): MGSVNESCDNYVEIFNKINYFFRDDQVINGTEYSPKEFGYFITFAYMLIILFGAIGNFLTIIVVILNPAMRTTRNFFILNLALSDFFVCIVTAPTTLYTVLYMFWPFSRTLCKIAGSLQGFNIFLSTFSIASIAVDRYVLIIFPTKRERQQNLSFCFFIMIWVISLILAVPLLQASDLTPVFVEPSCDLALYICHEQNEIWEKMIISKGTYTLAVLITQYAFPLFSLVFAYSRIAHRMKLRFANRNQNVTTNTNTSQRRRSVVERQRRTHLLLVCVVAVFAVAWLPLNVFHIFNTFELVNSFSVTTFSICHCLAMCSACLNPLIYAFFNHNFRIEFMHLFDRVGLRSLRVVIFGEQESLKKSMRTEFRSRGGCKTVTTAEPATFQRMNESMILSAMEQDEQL

[2] = tested on: NPR-6; assay: cAMP reporter gene assay, Gi/o (inhibition of forskolin-induced cAMP), NPR-6; type: cell-based, C. elegans; settings: 1 µM forskolin set to 1.00, transiently transfected HEK293 cells, mean of at least three independent experiments
[3] = target: T2, PrRPR (Homo sapiens, UniProt P49683); assay: IP accumulation assay, endogenous Gαq coupling, PrRPR; type: cell-based; settings: transiently transfected HEK293 cells, mean of at least three independent experiments
T2 construct: expressed in transfected cells; host or cells: HEK293, transient
T2 sequence (P49683 1-370): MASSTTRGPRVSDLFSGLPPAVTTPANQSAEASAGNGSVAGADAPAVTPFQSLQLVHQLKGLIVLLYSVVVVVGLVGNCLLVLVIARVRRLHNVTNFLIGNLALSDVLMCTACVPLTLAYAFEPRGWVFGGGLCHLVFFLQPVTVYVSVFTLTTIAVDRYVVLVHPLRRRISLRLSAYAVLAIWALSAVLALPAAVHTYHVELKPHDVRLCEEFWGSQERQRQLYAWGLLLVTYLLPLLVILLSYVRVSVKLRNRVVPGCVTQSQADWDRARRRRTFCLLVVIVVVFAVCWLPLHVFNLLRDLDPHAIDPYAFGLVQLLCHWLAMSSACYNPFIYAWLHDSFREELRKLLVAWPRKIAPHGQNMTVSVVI

[4] = target: T3, NPFF2R (Homo sapiens, UniProt Q9Y5X5); assay: IP accumulation assay, chimeric GαΔ6qi4myr, NPFF2R; type: cell-based; settings: chimeric GαΔ6qi4myr co-transfected, transiently transfected HEK293 cells, mean of at least three independent experiments
T3 construct: expressed in transfected cells; host or cells: HEK293, transient

[5] = target: T4, Y5R (Homo sapiens, UniProt Q15761); assay: IP accumulation assay, chimeric GαΔ6qi4myr, Y5R; type: cell-based; settings: chimeric GαΔ6qi4myr co-transfected, transiently transfected HEK293 cells, mean of at least three independent experiments
T4 construct: expressed in transfected cells; host or cells: HEK293, transient
T4 sequence (Q15761 1-445): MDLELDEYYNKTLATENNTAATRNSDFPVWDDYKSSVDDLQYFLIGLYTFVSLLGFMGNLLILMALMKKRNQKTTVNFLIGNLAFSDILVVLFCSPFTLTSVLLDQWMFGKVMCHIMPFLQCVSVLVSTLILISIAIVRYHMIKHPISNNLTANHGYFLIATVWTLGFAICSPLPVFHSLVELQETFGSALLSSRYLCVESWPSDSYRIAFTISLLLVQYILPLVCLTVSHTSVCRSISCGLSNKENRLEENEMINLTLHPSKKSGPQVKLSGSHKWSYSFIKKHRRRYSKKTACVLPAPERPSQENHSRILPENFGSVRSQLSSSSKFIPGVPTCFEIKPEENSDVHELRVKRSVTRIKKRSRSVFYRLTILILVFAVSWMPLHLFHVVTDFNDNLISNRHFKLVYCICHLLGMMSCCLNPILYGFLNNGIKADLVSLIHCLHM

[6] = target: T5, Y4R (Homo sapiens, UniProt P50391); assay: IP accumulation assay, chimeric GαΔ6qi4myr, Y4R; type: cell-based; settings: chimeric GαΔ6qi4myr co-transfected, transiently transfected HEK293 cells, mean of at least three independent experiments
T5 construct: expressed in transfected cells; host or cells: HEK293, transient

[7] = target: T6, NPR-3 (Caenorhabditis elegans, UniProt P90745); assay: cAMP reporter gene assay, Gi/o (inhibition of forskolin-induced cAMP), NPR-3; type: cell-based, C. elegans; settings: 1 µM forskolin set to 1.00, transiently transfected HEK293 cells, mean of at least three independent experiments
T6 construct: expressed in transfected cells; host or cells: HEK293
T6 sequence (P90745 1-376): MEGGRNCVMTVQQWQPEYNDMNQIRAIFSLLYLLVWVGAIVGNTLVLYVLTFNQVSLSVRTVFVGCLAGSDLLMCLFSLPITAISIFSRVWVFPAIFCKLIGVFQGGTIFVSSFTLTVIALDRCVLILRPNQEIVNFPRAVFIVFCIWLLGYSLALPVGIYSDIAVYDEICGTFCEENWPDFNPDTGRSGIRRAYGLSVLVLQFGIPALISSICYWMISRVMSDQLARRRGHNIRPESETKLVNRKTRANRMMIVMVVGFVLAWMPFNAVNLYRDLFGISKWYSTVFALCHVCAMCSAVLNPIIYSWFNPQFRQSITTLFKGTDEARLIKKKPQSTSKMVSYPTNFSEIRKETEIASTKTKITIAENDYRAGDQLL

## FLFQPQRF-NH2 [NPFF, human neuropeptide FF, reference compound]
[1]; 0.1 µM peptide
  cAMP, x-fold of forskolin (mean), NPR-11: 0.95 x-fold of forskolin
[1]; 10 µM peptide
  cAMP, x-fold of forskolin (mean), NPR-11: 0.78 x-fold of forskolin
[2]; 0.1 µM peptide
  cAMP, x-fold of forskolin (mean), NPR-6: 1.08 x-fold of forskolin
[2]; 10 µM peptide
  cAMP, x-fold of forskolin (mean), NPR-6: 0.43 x-fold of forskolin
[3]; 0.1 µM peptide
  IP accumulation, x-fold of basal (mean), PrRPR#: 0.89 x-fold of basal
[3]; 10 µM peptide
  IP accumulation, x-fold of basal (mean), PrRPR#: 1.28 x-fold of basal
[4]; 0.1 µM peptide
  IP accumulation, x-fold of basal (mean), NPFF2R: 2.33 x-fold of basal
[4]; 10 µM peptide
  IP accumulation, x-fold of basal (mean), NPFF2R: 2.28 x-fold of basal
[5]; 0.1 µM peptide
  IP accumulation, x-fold of basal (mean), Y5R: 0.59 x-fold of basal
[5]; 10 µM peptide
  IP accumulation, x-fold of basal (mean), Y5R: 1.11 x-fold of basal
[6]; 0.1 µM peptide
  IP accumulation, x-fold of basal (mean), Y4R: 0.89 x-fold of basal
[6]; 10 µM peptide
  IP accumulation, x-fold of basal (mean), Y4R: 0.99 x-fold of basal
[7]; 0.1 µM peptide
  cAMP, x-fold of forskolin (mean), NPR-3: 0.98 x-fold of forskolin
[7]; 10 µM peptide
  cAMP, x-fold of forskolin (mean), NPR-3: 1.00 x-fold of forskolin
